These results are taken from article PMC3229538, “Inhibition of G Protein-Activated Inwardly Rectifying K^+ Channels by Different Classes of Antidepressants” (PLoS ONE, 2011).

Counter-ions that a name gives are not always drawn.

Broadly, the IC25 is the concentration at which the effect reaches the 25% level. Read a high IC25 as a need for much substance.

In series [1] the target is T1, GIRK1/2 channels (Mus musculus, UniProt P48542+P63250).
T1 construct: expressed in transfected cells; host or cells: Xenopus laevis oocytes injected with in vitro transcribed mRNA
T1 sequence (P63250 1-501): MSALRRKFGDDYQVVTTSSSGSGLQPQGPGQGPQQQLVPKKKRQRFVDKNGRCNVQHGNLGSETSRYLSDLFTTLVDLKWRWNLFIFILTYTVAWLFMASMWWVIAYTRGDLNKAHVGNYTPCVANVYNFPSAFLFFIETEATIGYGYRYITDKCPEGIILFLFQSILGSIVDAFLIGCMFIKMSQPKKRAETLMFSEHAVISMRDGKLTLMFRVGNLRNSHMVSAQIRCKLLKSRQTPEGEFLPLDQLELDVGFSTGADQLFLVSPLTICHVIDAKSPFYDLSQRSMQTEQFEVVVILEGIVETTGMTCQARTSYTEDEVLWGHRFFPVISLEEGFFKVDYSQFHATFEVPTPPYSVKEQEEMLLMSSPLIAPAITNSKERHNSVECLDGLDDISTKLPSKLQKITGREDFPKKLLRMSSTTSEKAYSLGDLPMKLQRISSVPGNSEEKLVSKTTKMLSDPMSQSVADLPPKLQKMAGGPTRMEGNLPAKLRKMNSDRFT
T1 sequence (P48542 1-425): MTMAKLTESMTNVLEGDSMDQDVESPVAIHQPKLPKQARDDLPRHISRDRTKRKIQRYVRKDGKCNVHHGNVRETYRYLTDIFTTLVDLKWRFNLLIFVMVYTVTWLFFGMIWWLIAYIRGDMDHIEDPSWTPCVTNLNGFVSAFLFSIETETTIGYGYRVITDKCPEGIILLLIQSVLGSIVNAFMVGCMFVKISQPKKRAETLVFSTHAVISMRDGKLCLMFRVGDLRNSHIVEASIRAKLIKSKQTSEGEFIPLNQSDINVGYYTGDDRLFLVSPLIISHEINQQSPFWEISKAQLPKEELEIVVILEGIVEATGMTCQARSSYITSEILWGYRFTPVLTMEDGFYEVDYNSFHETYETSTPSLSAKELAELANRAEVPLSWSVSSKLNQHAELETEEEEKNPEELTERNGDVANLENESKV
The series can be described thus: Inhibition of basal GIRK currents, Xenopus oocyte expression assay, two-electrode voltage clamp. It is filed as cell-based. The following applies: for n H (Hill coefficient): basal GIRK currents; for IC25: concentration reducing basal GIRK currents by 25%. How it is done: (§1) Microelectrodes were filled with 3 M KCl. […]. The data are expressed as mean ± SEM, and n is the number of oocytes tested. The statistical analysis of differences between groups was performed using paired t-test, one-way analysis of variance (ANOVA), or two-way ANOVA followed by the Tukey-Kramer post hoc test. Values of P<0.05 were considered statistically significant.

For series [2], the target named is T2, GIRK1/4 channels (Mus musculus, UniProt P48545+P63250).
T2 construct: expressed in transfected cells; host or cells: Xenopus laevis oocytes injected with in vitro transcribed mRNA
T2 sequence (P63250 1-501): T1 sequence (P63250 1-501)
T2 sequence (P48545 1-419): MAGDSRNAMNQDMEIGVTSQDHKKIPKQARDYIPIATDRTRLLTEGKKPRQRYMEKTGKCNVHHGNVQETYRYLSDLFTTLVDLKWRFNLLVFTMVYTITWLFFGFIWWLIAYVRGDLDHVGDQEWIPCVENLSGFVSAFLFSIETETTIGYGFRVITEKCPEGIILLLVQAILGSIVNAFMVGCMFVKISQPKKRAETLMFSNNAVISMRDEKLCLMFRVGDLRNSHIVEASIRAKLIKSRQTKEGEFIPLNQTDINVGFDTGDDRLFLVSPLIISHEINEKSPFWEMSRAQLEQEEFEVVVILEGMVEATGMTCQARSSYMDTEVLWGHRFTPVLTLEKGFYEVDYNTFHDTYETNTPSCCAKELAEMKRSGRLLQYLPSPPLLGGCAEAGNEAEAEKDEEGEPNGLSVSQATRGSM
The series is described as above. It is filed as cell-based. To be noted: for n H (Hill coefficient): basal GIRK currents; for IC25: concentration reducing basal GIRK currents by 25%. How it is done:
as §1

The conditions of series [3]: cited from earlier work.
The target of series [4] is T3, GIRK1/2 channels activated by GTPγS (Mus musculus, UniProt P48542+P63250).
T3 construct: expressed in transfected cells; host or cells: Xenopus laevis oocytes injected with in vitro transcribed mRNA
T3 sequence (P63250 1-501): T1 sequence (P63250 1-501)
T3 sequence (P48542 1-425): T1 sequence (P48542 1-425)
The series can be described thus: Inhibition of total GIRK currents (GTPγS-induced and basal) in GTPγS-injected oocytes. Type of series: cell-based. The source says:
Microelectrodes were filled with 3 M KCl. […] GIRK channels are activated by various Gi/o-protein-coupled receptors through the direct action of G-protein βγ subunits released from the heterotrimeric G-protein complex, [33].

For series [5], the target named is GIRK1/2 channels activated by ethanol (Mus musculus, UniProt P48542+P63250).
Setting [6] is: 1000 µM, read-out: % max (percentage inhibition of basal GIRK currents at the highest concentration tested).
[7] abbreviates: read-out: % max (percentage inhibition of basal GIRK currents at the highest concentration tested).

As for `Clc1ccc2c(c1)C(N1CCNCC1)=Nc1ccccc1O2` [amoxapine, Amoxapine], the inhibition at 100 µM in series [1] (100 µM, −70 mV, hK solution) is 45.6 ± 4.4%; in series [2] (100 µM, −70 mV, hK solution), 27.6 ± 4%. For the same molecule, the inhibition at 1000 µM in series [1] (setting [6]) was 58.9 ± 2.9%; in series [2] (setting [6]), 36 ± 1.6%. In addition, the “n H (Hill coefficient)” value in series [1] is reported as 0.87±0.03; in series [2], 0.87±0.07. Also, the IC25 in series [1] turned out to be 21.5 ± 8.3 µM; in series [2], 39.7 ± 15.8 µM. Further, the “concentrations in cases of overdose” value in series [3] is recorded as no more than 57.4 µM.

On to `CN[C@H]1CC[C@@H](c2ccc(Cl)c(Cl)c2)c2ccccc21` [sertraline, Sertraline hydrochloride], for which the “effect on outward GIRK currents” value in series [1] (30 µM, K4 solution 4 mM K+, holding potential −10 mV) is “reversibly reduced”. In addition, in series [1] (30 µM, −120 to −40 mV), the “voltage dependence of GIRK current inhibition at the end of the voltage pulses” value is “voltage-independent”. Besides, the “current response in K+-free ND98 solution” value in series [1] (100 µM, ND98 solution 98 mM Na+) was 3.0±1.8 nA. Besides, in series [1] (additional 100 µM during 3 mM Ba2+), the “% inhibition of the Ba2+-sensitive current components during application of 3 mM Ba2+” value was “less than 1%”. Also, the “reduction of inward currents during application of 3 mM Ba2+” value in series [1] (additional 100 µM during 3 mM Ba2+, hK solution) turned out to be 4.5±3.5 nA. The “n H (Hill coefficient)” value in series [1] is recorded as 1.02±0.05; in series [2], 0.89±0.09. Also, the concentration for an effect of 25% (IC25) in series [1] amounted to 6.9 ± 0.6 µM; in series [2] it was 7.0 ± 1.0 µM; in series [4], 5.5 ± 0.7 µM; in series [5] (GIRK currents induced by 100 mM ethanol, extracellular application), 6.2 ± 1.4 µM. Besides, the “effect of extracellular pH on percentage inhibition of GIRK channels” value in series [1] (extracellular pH 7.4 and 9.0) was “not significantly affected”. Further, in series [1] (intracellularly applied, approximately 225 µM, oocytes that expressed GIRK channels), the “basal currents, % of untreated control current” value was found to be 92.5±1.6%. Further, the inhibition at 500 µM in series [1] (setting [7]) came out at 73.7 ± 2.9%. The inhibition at 30 µM in series [2] (read-out: % inhibition of 3 mM Ba2+-sensitive current components) is 51.6 ± 4.3%. Moreover, the inhibition at 300 µM in series [2] (setting [7]) is 63.7 ± 3.5%. In addition, the “n H” value in series [4] is 1.24±0.09; in series [5] (GIRK currents induced by 100 mM ethanol), 0.87±0.17. Moreover, in series [5] (intracellularly applied, approximately 225 µM, 100 mM ethanol), the “ethanol-induced GIRK currents, % of untreated control current” value worked out at 104.9±9.1%. Moreover, the “concentrations in cases of overdose” value in series [3] was “up to 13.7 µM”.
